# Measurements: PubChem BioAssay (Tox21)
# Values joined by “and” are separate entries in the source; they are usually repeats but may differ in a detail not shown here. Equal entries are not always repeated. This is a selection; strong and weak results do not stand in their true shares. Results filed as inconclusive are left out. Where a call stands in place of a potency, no number is given. Active and inactive are the calls of the source. The call rests on the fitted dose curve; in most records, active means well fitted activation curve with a large enough effect in the repeat runs; inconclusive means weak or mixed curves; inactive means flat fitted curve, though single readings scatter.
# Assay: A CellTox Green Cytotoxicity Assay to monitor cytotoxicity in HEK293 cells - 8 hour (AID 1224884); further: nearly all actives have a fitted effect of over 35% in size
# Settings: CellTox Green fluorescence; series mostly up to 76.8 µM
# Excerpt: National Center for Advancing Translational Sciences [NCATS]
# NIH Chemical Genomics Center [NCGC]
# U.S. Environmental Protection Agency [EPA]
# National Institutes of Environmental Health Sciences [NIEHS]
# National Toxicology Program [NTP]
# Cell-based models are critical for drug discovery. Determining the natural cytotoxic effects resulting from test compounds is an essential research activity. A CellTox Green Cytotoxicity Assay to monitor cytotoxicity in real time of continues cell culture during 40 hours of the compound treatment was used to screen Tox21 10K library compounds in Hek293 cells. CellTox Green Cytotoxicity Assay is a nonlytic, homogeneous, biofluorescent method to measure cytotoxicity in cell culture after experimental manipulation. The assay system uses a proprietary asymmetric cyanine dye that is excluded from viable cells but preferentially stains the dead cell's DNA. […] Viable cells produce no appreciable increases in fluorescence. Therefore, the fluorescence signal produced by the binding interaction with dead cell DNA is proportional to cytotoxicity.
# The mixture of Hek293 cell suspension and reagents were dispensed at 600cells/6 ul/well in 1536-well tissue culture treated black solid bottom plates using a Multidrop dispenser. After the assay plates were incubated at a 37 C/5% CO2 incubator for 5 hours, 23 nL of compounds dissolved in DMSO, positive and negative controls was transferred to the assay plate by a pintool work station. The plates were incubated at 37 C for 40 hours. The fluorescence intensity were measured at 0h, 8h, 16h, 24h, 32h and 40h time points using ViewLux plate reader during compound treatment.
# Potency means the concentration at half of the fitted maximal effect.
Structure (SMILES),Potency,cytotoxicity increase
O=[N+]([O-])c1ccc([N+](=O)[O-])cc1,inactive,
CCOC(=O)Cl,inactive,
CCCCO[P+](=O)OCCCC,inactive,
CC(C)OP(=S)(OC(C)C)SCCNS(=O)(=O)c1ccccc1,inactive,
CCCCOP(OCCCC)OCCCC,inactive,
O=C(Cl)Oc1ccccc1,inactive,
O=P(Cl)(Cl)c1ccccc1,inactive,
COP(=S)(Cl)OC,inactive,
CCNC(C)Cc1ccc2c(c1)OCO2 (stereo not drawn),inactive,
O=[As]c1ccccc1 (stereo not drawn),inactive,
O=[P+](Oc1ccccc1)Oc1ccccc1,inactive,
COC(=O)Cl,inactive,
CN(C(=O)Cc1cccc2occc12)[C@H]1CC[C@@]2(CCCO2)C[C@@H]1N1CCCC1,inactive,
Cc1cc([N+](=O)[O-])c(O)c([N+](=O)[O-])c1,inactive,
CN(C(=O)Cc1ccccc1)[C@H]1CC[C@@]2(CCCO2)C[C@@H]1N1CCCC1,inactive,
NC(=O)Nc1ccc([As](=O)(O)O)cc1,inactive,
CN(N=O)C(=N)N[N+](=O)[O-],inactive,
CCC(C)(OOC(C)(C)C)OOC(C)(C)C,,inactive: 3.44% [at 15.8 µM]
CCCCC(CC)CO[P+](=O)OCC(CC)CCCC (stereo not drawn),inactive,
O=C(Cl)OCCOC(=O)Cl,inactive,
O=C1C2CC=CCC2C(=O)N1SC(Cl)(Cl)C(Cl)Cl (stereo not drawn),active: 39.2 µM and active: 9.77 µM,
CC(C)CCCCCCCOP(OCCCCCCCC(C)C)Oc1ccccc1,inactive,
O=P(Cl)(Oc1ccccc1)Oc1ccccc1,inactive,
O=[N+]([O-])c1ccc(S(=O)(=O)O)c([N+](=O)[O-])c1,inactive,
ClP(Cl)c1ccccc1,inactive,
Cc1cc([N+](=O)[O-])cc([N+](=O)[O-])c1O,inactive,
CN(C(=O)Cc1ccc(Cl)c(Cl)c1)[C@H]1CC[C@@]2(CCCO2)C[C@@H]1N1CCCC1,inactive,
CCOP(=S)(CC)Sc1ccccc1 (stereo not drawn),inactive,
